The results in this text go back to paper PMC6355875 (Scientific Reports, 2019).

Sequences of proteins named here, by UniProt entry; tags and fusion partners are left off. Residues count along the entry.
UniProt Q07869, 175-468 limits assumed: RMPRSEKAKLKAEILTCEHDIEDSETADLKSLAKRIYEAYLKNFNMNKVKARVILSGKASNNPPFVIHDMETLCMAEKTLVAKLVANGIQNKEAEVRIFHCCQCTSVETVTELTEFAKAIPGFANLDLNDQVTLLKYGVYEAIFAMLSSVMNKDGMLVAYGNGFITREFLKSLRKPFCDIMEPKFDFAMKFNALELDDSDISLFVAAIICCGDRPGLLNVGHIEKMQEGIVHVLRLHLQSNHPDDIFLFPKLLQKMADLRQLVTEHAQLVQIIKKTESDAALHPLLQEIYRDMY
UniProt P37231, 212-505 limits assumed: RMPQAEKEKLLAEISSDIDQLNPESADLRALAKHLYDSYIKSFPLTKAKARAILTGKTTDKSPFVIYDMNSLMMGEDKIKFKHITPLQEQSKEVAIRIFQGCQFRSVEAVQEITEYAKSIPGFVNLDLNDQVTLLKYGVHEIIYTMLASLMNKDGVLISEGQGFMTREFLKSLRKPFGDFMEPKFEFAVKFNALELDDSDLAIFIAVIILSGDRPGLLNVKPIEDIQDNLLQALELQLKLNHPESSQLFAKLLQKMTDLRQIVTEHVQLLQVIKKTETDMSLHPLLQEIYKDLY

The target of test [1] is hPPAR-α (Homo sapiens, UniProt Q07869). Put plainly: GAL4-DBD hPPARα/LBD luciferase reporter assay in HEK293T cells. Type of test: cell-based. The settings on record: read-out: EC50 PPAR-α; Table S7.
Test [2] deals with hPPAR-γ (Homo sapiens, UniProt P37231). Briefly: GAL4-DBD hPPARγ/LBD luciferase reporter assay in HEK293T cells. Type of test: cell-based. The settings on record: read-out: EC50 PPAR-γ; Table S7.

Turning to `Cc1cccc2c(CN(Cc3ccc(-c4ccc(Cl)cc4)o3)Cc3cc(=O)oc4c(C)c(O)ccc34)cc(=O)oc12`, the EC50 in test [1] was greater than 10 µM; in test [2], 7.2 µM.

`COc1ccc(Oc2ccc(CNC(=O)c3cc4c(cc3O)OCO4)cn2)cc1`: the EC50 was greater than 10 µM in test [1] and 9.05 µM in test [2].

Regarding `O=C(O)CCCOc1ccc(C(=O)/C=C/c2cnn(Cc3ccccc3Cl)c2)cc1`, the EC50 in test [1] was 8.31 µM; in test [2], greater than 10 µM.

With `O=C(NCc1ccc(COCC(F)(F)F)cc1)N1CCN(c2ccccc2O)CC1`, the EC50 in test [1] is greater than 10 µM; in test [2], 8.11 µM.

As for `O=c1oc2c(CN3CCN(CCO)CC3)c(O)ccc2cc1-c1nc2ccccc2s1`, the EC50 in test [1] is greater than 10 µM; in test [2], 7.01 µM.

Take `CCOc1cc(/C=C/c2cc(C(=O)O)c3ccccc3n2)ccc1OC(F)F`: the EC50 in test [1] is 6.77 µM; in test [2] it was 7.47 µM.

As for `COc1cc(/C=C/C(=O)c2ccc(SCC(=O)O)c(OC)c2)ccc1OC(F)F`, the results for the EC50 in test [1] and in test [2] were 8.76 µM and 7.01 µM, respectively.

Take `COc1ccc(C(=O)/C=C/c2ccc(C(C)(C)C)cc2)cc1CSCC(=O)O`: the concentration for a half-maximal effect (EC50) in test [1] was determined as 1.6 µM; in test [2], 2.78 µM.

`COc1ccc(C(=O)/C=C/c2cccc(C(F)(F)F)c2)cc1CSCC(=O)O`: the EC50 in test [1] is 2.2 µM; in test [2], 1.61 µM.

On to `COc1cc(/C=C/C(=O)OC(C)C(=O)Nc2ccc(C(C)C)cc2)ccc1O` (stereo not shown), for which the results for the EC50 in test [1] and in test [2] were 3.13 µM and 4.72 µM, respectively.

Regarding `COc1ccc(C(=O)/C=C/c2ccc(C(F)(F)F)cc2)cc1CSCC(=O)O`, the EC50 in test [1] is 4.45 µM; in test [2], 5.84 µM.

As to `COc1ccc(C(=O)/C=C/c2ccc(OC(F)F)c(OC)c2)cc1CSCC(=O)O`, the EC50 in test [1] came to 2.36 µM; in test [2], 7.77 µM.

On to `Cc1nn(-c2ccccc2)c(Cl)c1/C=C/C(=O)c1ccc(OCCCC(=O)O)cc1`, for which the EC50 was 1.38 µM in test [1] and 1.7 µM in test [2].

On to `COc1ccc(C2=NN(c3nc(-c4ccccc4)c(CC(=O)O)s3)C(c3ccco3)C2)cc1` (stereo not shown), for which the EC50 in test [1] was greater than 10 µM; in test [2], 6.27 µM.

Consider `COc1ccc(CCNC(=O)N2CCC(c3ccc(O)cc3)CC2)cc1OC`, for which the results for the EC50 in test [1] and in test [2] were greater than 10 µM and 6.02 µM, respectively.

For the molecule `O=C(Nc1ccccc1O)C1CCN(C(=O)c2ccc(COc3ccccc3)o2)CC1`, the results for the EC50 in test [1] and in test [2] were 7.85 µM and greater than 10 µM, respectively.

With `COc1ccc(-c2cc(COc3cc4ccccc4cc3C(=O)O)on2)cc1`, the figures for the EC50 in test [1] and in test [2] were greater than 10 µM and 8.76 µM, respectively.

As to `COc1cc(CN(C)C(=O)NCc2cccc(O)c2)ccc1OCc1ccccc1`, the EC50 in test [1] was greater than 10 µM; in test [2] it was 6.92 µM.

On to `Cc1cc(C(=O)COC(=O)c2ccc(O)cc2O)c(C)n1-c1ccc(OC(F)F)cc1`, for which the EC50 in test [1] is greater than 10 µM; in test [2], 2.06 µM.

Consider `COc1ccc(Cl)cc1-c1nnc(SCC(=O)c2cc(C)n(-c3ccc4c(c3)OCCO4)c2C)[nH]1`, for which the EC50 was greater than 10 µM in test [1] and 4.15 µM in test [2].

As for `OC(CN1CCC(CCCC2CCN(CC(O)c3ccccc3)CC2)CC1)c1ccccc1` (stereo not shown), the EC50 in test [1] is 8.2 µM; in test [2] it was greater than 10 µM.

For `COc1ccc(NC(=O)c2ccc(COC(=O)c3ccc(C)c(O)c3)cc2)cc1`, the values for the EC50 in test [1] and in test [2] were 8.37 µM and greater than 10 µM, respectively.

`Cc1cc(C(=O)COc2ccc(CC(=O)O)cc2)c(C)n1-c1ccc(F)c(Cl)c1`: the concentration giving a half-maximal response (EC50) is 9.02 µM in test [1] and greater than 10 µM in test [2].

As to `CCCOc1ccc(OCC(=O)NCc2ccc(OC)c(C(=O)O)c2)cc1`, the EC50 in test [1] is 5.98 µM; in test [2] it was greater than 10 µM.

Take `COc1ccc(C(=O)/C=C/c2ccc(-c3ccccc3)cc2)cc1CSCC(=O)O`: the EC50 in test [1] was 1.2 µM; in test [2], greater than 10 µM.

In the case of `Cc1nn(-c2ccccc2)c(Cl)c1/C=C/C(=O)c1ccc(OC(C)C(=O)O)cc1` (stereo not shown), the figures for the EC50 in test [1] and in test [2] were 8.32 µM and greater than 10 µM, respectively.

With `O=C(O)COc1ccc(/C=C/C(=O)c2ccc(C3CCCCC3)cc2)cc1`, the EC50 in test [1] is 1.86 µM; in test [2], greater than 10 µM.

On to `O=C(O)c1ccc(OCCOc2ccc(Oc3ccccc3)cc2)cc1`, for which the EC50 in test [1] is greater than 10 µM; in test [2], 7.84 µM.

In the case of `COc1ccc(C(NCC(=O)Nc2ccc(N3CCCC3)cc2)c2ccccc2)cc1` (stereo not shown), the EC50 in test [1] was greater than 10 µM; in test [2], 6 µM.

Consider `COc1cc(/C=C/C(=O)OCc2csc(Nc3ccc(C)cc3)n2)ccc1O`, for which the concentration for a half-maximal effect (EC50) is greater than 10 µM in test [1] and 2.28 µM in test [2].

`Cc1cccc(OCC(=O)NCc2ccc(N3CCC(CO)CC3)cc2)c1`: the EC50 in test [1] was greater than 10 µM; in test [2], 8.36 µM.

`CC1CCN(c2ccc(NC(=O)CNC(c3ccc(F)cc3)c3cccs3)cc2)CC1` (stereo not shown): the EC50 in test [1] is 4.81 µM; in test [2], 0.949 µM.

Consider `COc1ccc(CCC(=O)Nc2ccc(/C=C/C(=O)O)cc2)cc1OC`, for which the figures for the EC50 in test [1] and in test [2] were 7.7 µM and greater than 10 µM, respectively.

For the molecule `O=C(CCc1ccccc1O)NCc1ccc(Oc2cccnc2)c(F)c1`, the figures for the EC50 in test [1] and in test [2] were 6.82 µM and greater than 10 µM, respectively.

`CCCc1cc(O)nc(SCC(=O)NC(c2ccccc2)c2ccc(OC)cc2)n1` (stereo not shown): the figures for the EC50 in test [1] and in test [2] were greater than 10 µM and 6.87 µM, respectively.

With `Cc1cc(C(=O)CSc2n[nH]c(-c3ccccc3)n2)c(C)n1Cc1ccc2c(c1)OCO2`, the EC50 in test [1] was greater than 10 µM; in test [2] it was 7.21 µM.

Regarding `CCn1c(-c2ccc3c(c2)OCCO3)cnc1SCC(=O)c1ccc(O)cc1O`, the figures for the EC50 in test [1] and in test [2] were 4.7 µM and 9.9 µM, respectively.

As to `COc1cc(CNC2CCOc3ccccc32)ccc1OCC(=O)Nc1ccc(F)c(Cl)c1` (stereo not shown), the EC50 in test [1] was 1.65 µM; in test [2] it was greater than 10 µM.

As for `CC(C)Oc1ccc(-c2nn(-c3ccccc3)cc2CNCCCN2CCC(O)CC2)cc1`, the results for the half-maximal effective concentration (EC50) in test [1] and in test [2] were 8.83 µM and greater than 10 µM, respectively.

As for `Cc1ccc2[nH]c(SCC(=O)c3cc(C)n(-c4ccc5c(c4)OCCO5)c3C)nc2c1`, the EC50 is greater than 10 µM in test [1] and 8.75 µM in test [2].

For `COc1cc(C(=O)/C=C/c2ccccc2OCc2ccccc2)ccc1SCC(=O)O`, the EC50 was 4.55 µM in test [1] and 1.21 µM in test [2].

Regarding `COc1cc(/C=C/C(=O)OCC(=O)Nc2ccc(C(C)C)cc2)ccc1O`, the 50% effective concentration (EC50) in test [1] is 8.91 µM; in test [2], greater than 10 µM.

Take `OCCN1CCN(CC(O)COc2ccc(C34CC5CC(CC(C5)C3)C4)cc2)CC1` (stereo not shown): the EC50 in test [1] is 7.75 µM; in test [2] it was greater than 10 µM.

With `O=C(COc1ccc(C(=O)/C=C/c2cccc(O)c2)cc1)Nc1ccccc1`, the values for the EC50 in test [1] and in test [2] were 8.83 µM and 2.05 µM, respectively.

Consider `Cc1ccc(OCCNC(C(=O)Nc2ccc([N+](=O)[O-])cc2Cl)c2ccccc2)cc1` (stereo not shown), for which the 50% effective concentration (EC50) in test [1] was greater than 10 µM; in test [2], 6.31 µM.

On to `COc1ccc(CNC(=O)c2ccc(OCCC(C)C)cc2)cc1C(=O)O`, for which the EC50 in test [1] was 4.64 µM; in test [2], greater than 10 µM.

Take `Cc1ccc(C(=O)Nc2cccc(CNCc3cccc(C(F)(F)F)c3)c2)cc1`: the EC50 in test [1] was 4.78 µM; in test [2], greater than 10 µM.

Consider `CC(Oc1ccc(C(=O)NCc2cc([N+](=O)[O-])ccc2O)cn1)c1ccccc1` (stereo not shown), for which the EC50 in test [1] turned out to be 7.64 µM; in test [2], 0.348 µM.

Consider `COc1ccc(-c2nnc(SCC(=O)N3CCN(c4cccc(C(F)(F)F)c4)CC3)[nH]2)cc1`, for which the EC50 was greater than 10 µM in test [1] and 7.18 µM in test [2].

With `CCc1ccc(-c2nnc(SCC(=O)c3cc(C)n(-c4cccc(C(F)(F)F)c4)c3C)[nH]2)cc1`, the 50% effective concentration (EC50) in test [1] is greater than 10 µM; in test [2] it was 8.62 µM.

As to `COc1cc(C(=O)NCc2ccc(C(=O)O)cc2)cc(Cl)c1OCC(C)C`, the results for the EC50 in test [1] and in test [2] were 9.55 µM and greater than 10 µM, respectively.

For `COc1cc(C(=O)/C=C/c2cn(-c3ccccc3)nc2-c2cc3ccccc3o2)ccc1OCC(=O)O`, the EC50 in test [1] amounted to 3.33 µM; in test [2] it was 5.37 µM.

Take `CC(OC(=O)c1ccc(CO)cc1)C(=O)Nc1ccc(OCc2ccccc2)cc1` (stereo not shown): the values for the EC50 in test [1] and in test [2] were greater than 10 µM and 1.19 µM, respectively.
